Columns and labels:
Assay type in all cases: cell-based
Aspergillus phoenicia = assay: MIC against fungi, strain H; conditions: malt extract agar
Experimental: (§1) Determination of the minimum inhibitory concentration (MIC) against fungi
(§2) The investigation is carried out in malt extract agar (Merck) by the known agar incorporation test using the fungi
(§3) For inhibition, the various compounds are in each case added in amounts such that concentrations of […] results in the agar. The concentrations (mg/liter) required for inhibition of the growth of the fungi (starting from traces of fungi dripped on) are illustrated in Table D.

Chlorella vulgaris = assay: Action against Chlorella vulgaris; set-up: key to Growth in the medium: 1: no growth in the medium, 3 ppm have a growthinhibiting action; key to Growth on the agar: 2: no growth on the agar, 3 ppm have destroyed the algae within 6 hours; conditions: 3 mg/liter; for Growth on the agar: 6 hours exposure (algae-destruction action); for Growth in the medium: 14 days (inhibition of growth)
Experimental: Determination of the action against algae
A Chlorella vulgaris culture grown for 14 days in algae nutrient medium is diluted 1:200 in algae nutrient medium. Each of the compounds listed in Table E is then added such that a concentration of 3 mg/liter results. After incubation for 6 hours, 10 μl are in each case withdrawn and dripped onto algae agar in order to determine the destructive action. After incubation for 14 days with illumination (14 hours light/10 hours dark cycle), the growth in the algae medium (determination of the inhibition of growth) on the algae agar (determination of the algae-destruction action) is evaluated visually.

Penicillium funiculosum = assay: MIC against fungi, strain I; conditions: malt extract agar
Experimental: as §1, §2
I Penicillium funiculosum
as §3

Aspergillus niger = assay: MIC against fungi, strain G; conditions: malt extract agar
Experimental: as §1, §2, §3

Serratia marcenscens = assay: MIC against bacteria, strain D; conditions: 24 h, 30° C., tested at 100 or 300 mg/liter
Experimental: (§4) Determination of the minimum inhibitory concentration (MIC) against bacteria
(§5) ONCs (cultures incubated overnight) of the bacteria strains A-F grown in Caso-Peptone broth (Merck) are each diluted […] in saline. An amount of the suspension is introduced into Caso-Peptone broth such that the bacteria are again diluted 1:1,000. The cultures are treated with 100 or 300 mg/liter of the phosphonium stannates shown in Table B. After incubation at 30° C. in a shaking water bath for 24 hours, the cultures are evaluated on the basis of cloudiness. The MIC is the concentration at which the broth is not clouded by bacterial growth.

Pseudomonas aeruginosa = assay: MIC against bacteria, strain B; conditions: 24 h, 30° C., tested at 100 or 300 mg/liter
Experimental: as §4, §5

Proteus vulgaris = assay: MIC against bacteria, strain A; conditions: 24 h, 30° C., tested at 100 or 300 mg/liter
Experimental: as §4, §5

Endomyces geotrichum = assay: MIC against fungi, strain M; conditions: malt extract agar
Experimental: as §1, §2, §3

Bacillus subtilis = assay: MIC against bacteria, strain F; conditions: 24 h, 30° C., tested at 100 or 300 mg/liter
Experimental: as §4, §5

Candida albicans = assay: MIC against fungi, strain L; conditions: malt extract agar
Experimental: as §1, §2, §3

Enterobacter aerogenes = assay: MIC against bacteria, strain C; conditions: 24 h, 30° C., tested at 100 or 300 mg/liter
Experimental: as §4, §5

[1] = system: Alkaligenes denitrificans; assay: MIC against bacteria, strain E; conditions: 24 h, 30° C., tested at 100 or 300 mg/liter
Experimental: as §4, §5

Chaetomium globosum = assay: MIC against fungi, strain O; conditions: malt extract agar
Experimental: as §1, §2, §3

Alternaria alternata = assay: MIC against fungi, strain J; conditions: malt extract agar
Experimental: as §1, §2, §3

Compound | MIC against fungi (Aspergillus phoenicia) [µg/mL] | Growth on the agar (Chlorella vulgaris) | Growth in the medium (Chlorella vulgaris) | MIC against fungi (Penicillium funiculosum) [µg/mL] | MIC against fungi (Aspergillus niger) [µg/mL] | MIC (Serratia marcenscens) [µg/mL] | MIC (Pseudomonas aeruginosa) [µg/mL] | MIC (Proteus vulgaris) [µg/mL] | MIC against fungi (Endomyces geotrichum) [µg/mL] | MIC (Bacillus subtilis) [µg/mL] | MIC against fungi (Candida albicans) [µg/mL] | MIC (Enterobacter aerogenes) [µg/mL] | MIC [1] [µg/mL] | MIC against fungi (Chaetomium globosum) [µg/mL] | MIC against fungi (Alternaria alternata) [µg/mL]
CCCCCCCCCCCCCC[P+](CCCC)(CCCC)CCCC.CCC[CH2][Sn-]([F])([Cl])([CH2]CCC)[CH2]CCC [Example 27] | 10 | 2 | 1 | 10 | 10 | 100 | 100 | 100 | 10 | 100 | 10 | 100 | 100 | 10 | 10
CCCCCCCCCCCCCC[P+](CCCC)(CCCC)CCCC.[F][Sn-]([Cl])([c]1ccccc1)([c]1ccccc1)[c]1ccccc1 [Example 37] | 10 | 2 | 1 | 10 | 10 | 100 | 100 | 100 | 10 | 100 | 10 | 100 | 100 | 10 | 10

Source: patent US4554367A, “Phosphonium organohalogenostannates-IV” (priority 1982, dated 1985)
